Among the data in PubChem BioAssay AID624003 (Vanderbilt Specialized Chemistry Center, 2012) are IC50 values, retold here.

By UniProt entry, the sequences of proteins in these tests, tags left out. Where a name states a change or a piece, a line headed by the entry shows the natural chain unless it says otherwise.
UniProt Q13393: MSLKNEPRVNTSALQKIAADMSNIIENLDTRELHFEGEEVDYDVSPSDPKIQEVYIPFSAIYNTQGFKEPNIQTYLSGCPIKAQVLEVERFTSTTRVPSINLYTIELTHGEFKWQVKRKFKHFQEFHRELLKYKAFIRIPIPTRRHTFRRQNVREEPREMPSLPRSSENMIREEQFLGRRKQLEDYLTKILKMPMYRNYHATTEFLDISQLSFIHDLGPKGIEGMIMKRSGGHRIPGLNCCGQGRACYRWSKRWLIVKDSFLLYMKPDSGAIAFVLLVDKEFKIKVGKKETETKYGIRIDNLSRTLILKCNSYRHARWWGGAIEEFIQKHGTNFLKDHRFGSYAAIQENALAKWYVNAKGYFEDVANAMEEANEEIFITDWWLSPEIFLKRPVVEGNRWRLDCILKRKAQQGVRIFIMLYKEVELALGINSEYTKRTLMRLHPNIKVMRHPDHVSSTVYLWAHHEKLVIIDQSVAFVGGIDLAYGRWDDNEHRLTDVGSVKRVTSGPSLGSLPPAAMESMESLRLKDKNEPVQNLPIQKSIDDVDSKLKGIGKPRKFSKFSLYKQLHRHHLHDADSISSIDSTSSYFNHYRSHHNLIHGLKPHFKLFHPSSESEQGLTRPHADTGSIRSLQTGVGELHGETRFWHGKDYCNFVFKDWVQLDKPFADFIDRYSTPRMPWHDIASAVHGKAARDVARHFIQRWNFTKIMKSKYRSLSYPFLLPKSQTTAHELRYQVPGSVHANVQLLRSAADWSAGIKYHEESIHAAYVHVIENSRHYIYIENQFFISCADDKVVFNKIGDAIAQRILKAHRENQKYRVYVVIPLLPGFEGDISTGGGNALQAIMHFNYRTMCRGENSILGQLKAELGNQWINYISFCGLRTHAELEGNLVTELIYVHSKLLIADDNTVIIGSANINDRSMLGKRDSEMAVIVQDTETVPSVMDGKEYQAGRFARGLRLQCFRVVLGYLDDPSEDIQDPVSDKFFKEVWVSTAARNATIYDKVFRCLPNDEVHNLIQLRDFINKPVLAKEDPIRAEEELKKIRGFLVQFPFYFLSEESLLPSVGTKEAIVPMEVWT

Usually IC50 stands for the point on the concentration scale where inhibition reaches its midpoint.

For this experiment, the target named is Phospholipase D1 (Homo sapiens) + Phospholipase D1 (Homo sapiens) (UniProt Q13393+Q13393). In words: PLD1 inhibition potency in cells, dose response, cell-based, Lib32, assay 2A (AID 624003). Conditions: cellular PLD1 activity assay.

On to `O=C(NCCN1CCC2(CC1)C(=O)NCN2c1cccc(F)c1)c1ccc(F)cc1`, for which the IC50 was 11.8 µM.
